Values quoted from earlier work, collected in patent US11173139B2, “Method for extending lifespan delaying the onset of age-related disease” (priority 2004, dated 2021).

Tests used:
brain mitochondrial DNA = conditions: mice, kainic acid; cited from earlier work
[1] = mice; cited from earlier work

**Q.** Which results are given for alpha-ketoglutarate?
**A.** protection of brain mitochondrial DNA (brain mitochondrial DNA): protected brain mitochondrial DNA from damage; LD50 [1]: above 5 g/kg of body weight
